Among the data in ChEMBL document CHEMBL5705895, “Species comparison and pharmacological characterization of human, monkey, rat, and mouse TRPA1 channels” (J Pharmacol Exp Ther, 2012) are Emax values, retold here.

Amino acid sequences for entries named in this document (tags omitted).
UniProt Q6RI86, whole entry: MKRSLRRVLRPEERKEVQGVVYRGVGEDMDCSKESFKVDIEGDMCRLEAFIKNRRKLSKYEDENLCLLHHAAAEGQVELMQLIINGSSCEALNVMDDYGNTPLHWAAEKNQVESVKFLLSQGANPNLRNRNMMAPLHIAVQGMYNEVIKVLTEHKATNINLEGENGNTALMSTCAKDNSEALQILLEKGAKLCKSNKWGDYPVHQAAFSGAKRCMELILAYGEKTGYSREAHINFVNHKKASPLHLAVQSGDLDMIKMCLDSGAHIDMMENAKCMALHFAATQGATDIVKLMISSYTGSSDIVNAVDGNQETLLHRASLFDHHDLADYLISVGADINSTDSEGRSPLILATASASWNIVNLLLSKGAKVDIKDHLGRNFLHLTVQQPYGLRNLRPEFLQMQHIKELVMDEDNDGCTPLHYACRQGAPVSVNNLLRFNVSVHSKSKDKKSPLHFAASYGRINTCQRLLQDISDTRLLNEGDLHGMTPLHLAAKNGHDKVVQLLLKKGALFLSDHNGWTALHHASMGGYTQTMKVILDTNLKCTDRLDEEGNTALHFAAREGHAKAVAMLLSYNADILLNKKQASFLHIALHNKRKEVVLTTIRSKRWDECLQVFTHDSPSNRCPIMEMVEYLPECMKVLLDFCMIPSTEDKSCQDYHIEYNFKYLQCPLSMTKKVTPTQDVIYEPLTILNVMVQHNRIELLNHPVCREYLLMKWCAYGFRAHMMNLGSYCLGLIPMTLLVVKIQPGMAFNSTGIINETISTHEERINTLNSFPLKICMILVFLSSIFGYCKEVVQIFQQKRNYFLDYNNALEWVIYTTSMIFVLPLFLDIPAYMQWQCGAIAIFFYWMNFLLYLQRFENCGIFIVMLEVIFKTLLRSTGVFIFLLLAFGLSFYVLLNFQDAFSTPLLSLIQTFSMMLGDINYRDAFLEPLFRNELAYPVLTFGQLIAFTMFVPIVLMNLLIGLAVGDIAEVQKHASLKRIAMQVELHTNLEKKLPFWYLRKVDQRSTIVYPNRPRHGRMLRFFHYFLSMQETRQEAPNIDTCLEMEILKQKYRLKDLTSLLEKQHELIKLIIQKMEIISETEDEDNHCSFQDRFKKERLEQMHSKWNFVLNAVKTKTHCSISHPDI
UniProt O75762, whole entry: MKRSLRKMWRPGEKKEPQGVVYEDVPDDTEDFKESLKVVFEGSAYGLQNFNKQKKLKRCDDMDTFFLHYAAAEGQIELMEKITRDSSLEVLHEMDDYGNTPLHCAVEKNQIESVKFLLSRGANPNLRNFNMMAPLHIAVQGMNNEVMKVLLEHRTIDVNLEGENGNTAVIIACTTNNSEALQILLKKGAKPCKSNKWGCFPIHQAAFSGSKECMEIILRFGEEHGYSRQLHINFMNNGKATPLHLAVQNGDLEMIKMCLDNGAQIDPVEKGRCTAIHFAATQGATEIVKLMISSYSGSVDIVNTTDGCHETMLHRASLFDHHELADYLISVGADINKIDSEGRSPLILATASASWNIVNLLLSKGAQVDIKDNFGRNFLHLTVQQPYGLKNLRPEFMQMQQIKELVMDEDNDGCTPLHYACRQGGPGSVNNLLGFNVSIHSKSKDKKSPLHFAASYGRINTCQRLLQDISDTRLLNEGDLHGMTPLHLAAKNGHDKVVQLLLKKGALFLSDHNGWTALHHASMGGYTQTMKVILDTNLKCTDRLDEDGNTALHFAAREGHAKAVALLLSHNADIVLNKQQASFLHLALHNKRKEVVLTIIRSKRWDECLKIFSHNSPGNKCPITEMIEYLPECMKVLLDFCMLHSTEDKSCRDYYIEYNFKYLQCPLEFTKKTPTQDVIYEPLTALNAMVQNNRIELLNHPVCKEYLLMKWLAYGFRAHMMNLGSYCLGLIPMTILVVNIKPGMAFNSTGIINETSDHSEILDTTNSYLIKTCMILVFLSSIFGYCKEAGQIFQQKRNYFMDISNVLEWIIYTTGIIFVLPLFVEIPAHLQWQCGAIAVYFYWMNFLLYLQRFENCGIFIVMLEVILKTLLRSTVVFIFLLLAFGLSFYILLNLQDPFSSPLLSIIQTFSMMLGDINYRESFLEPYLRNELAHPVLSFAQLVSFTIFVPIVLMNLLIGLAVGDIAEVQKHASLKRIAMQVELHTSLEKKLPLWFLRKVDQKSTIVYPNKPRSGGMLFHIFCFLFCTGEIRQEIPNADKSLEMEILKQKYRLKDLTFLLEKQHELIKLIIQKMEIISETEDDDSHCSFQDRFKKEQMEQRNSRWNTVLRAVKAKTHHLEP
UniProt Q8BLA8, whole entry: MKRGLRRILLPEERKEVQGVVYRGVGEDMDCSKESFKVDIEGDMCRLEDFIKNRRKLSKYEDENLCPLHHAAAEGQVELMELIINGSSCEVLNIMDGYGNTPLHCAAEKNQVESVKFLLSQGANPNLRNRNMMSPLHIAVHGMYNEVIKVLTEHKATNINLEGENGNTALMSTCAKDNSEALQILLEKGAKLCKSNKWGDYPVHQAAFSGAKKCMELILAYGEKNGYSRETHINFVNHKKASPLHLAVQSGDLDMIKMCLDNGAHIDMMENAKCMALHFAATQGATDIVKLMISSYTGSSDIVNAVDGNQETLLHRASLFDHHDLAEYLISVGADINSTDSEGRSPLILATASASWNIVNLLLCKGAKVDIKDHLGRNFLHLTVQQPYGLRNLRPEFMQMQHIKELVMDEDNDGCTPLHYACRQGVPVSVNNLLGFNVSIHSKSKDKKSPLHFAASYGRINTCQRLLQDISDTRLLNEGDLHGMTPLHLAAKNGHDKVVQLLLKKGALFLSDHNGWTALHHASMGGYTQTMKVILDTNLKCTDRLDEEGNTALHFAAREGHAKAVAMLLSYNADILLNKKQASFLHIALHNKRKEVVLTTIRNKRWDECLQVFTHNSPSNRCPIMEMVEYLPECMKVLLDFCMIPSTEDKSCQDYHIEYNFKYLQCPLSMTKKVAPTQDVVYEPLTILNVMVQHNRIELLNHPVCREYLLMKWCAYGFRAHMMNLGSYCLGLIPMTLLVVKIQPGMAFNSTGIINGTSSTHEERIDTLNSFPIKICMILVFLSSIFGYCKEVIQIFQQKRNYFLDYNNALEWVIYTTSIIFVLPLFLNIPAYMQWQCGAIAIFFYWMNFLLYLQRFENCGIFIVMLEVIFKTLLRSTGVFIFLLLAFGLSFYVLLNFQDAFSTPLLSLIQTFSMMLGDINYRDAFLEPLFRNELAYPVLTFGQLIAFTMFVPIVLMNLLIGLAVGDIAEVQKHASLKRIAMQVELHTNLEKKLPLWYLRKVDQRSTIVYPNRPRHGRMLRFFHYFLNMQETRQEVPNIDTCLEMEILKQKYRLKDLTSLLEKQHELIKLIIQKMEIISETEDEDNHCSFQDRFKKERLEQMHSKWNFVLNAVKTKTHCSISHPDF

Each structure is given as a SMILES string.

What all share (assay type): cell-based
Holding throughout (settings): filed as agonist

The target of test [1] is Transient receptor potential cation channel subfamily A member 1 (Rattus norvegicus) (UniProt Q6RI86). Put plainly: Agonist activity at full length rat TRPA1 transfected in HEK293F cells assessed as increase in Ca2+ influx by FLIPR calcium assay relative to MO.
Test [2] concerns the target Transient receptor potential cation channel subfamily A member 1 (Homo sapiens, UniProt O75762). Put plainly: Agonist activity at full length human TRPA1 transfected in HEK293F cells assessed as increase in Ca2+ influx by FLIPR calcium assay relative to MO.
In test [3] the target is Transient receptor potential cation channel subfamily A member 1 (Mus musculus) (UniProt Q8BLA8). Put plainly: Agonist activity at full length mouse TRPA1 transfected in HEK293F cells assessed as increase in Ca2+ influx by FLIPR calcium assay relative to control.

With `O=[N+]([O-])c1cc([N+](=O)[O-])c(O)c([N+](=O)[O-])c1`, the results for the Emax in test [1], in test [2] and in test [3] were 60%, 61% and 59%, respectively.

Broadly, the Emax is the maximal effect, on the per cent scale that the assay sets.
